Source: PubChem BioAssay AID1776 (NMMLSC, 2009)
The list shows a part of the results, in another mix than the full data. Calls of active or inactive are those of the source. Rule as the data show it: active = fluorescence above about 89; inactive = the rest.

Test: green autofluorescence of compounds with GSH beads – biophysical, 488/530 nm, flow cytometry, artefact control, profiling panel (AID 1776);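 also: glutathione beads carrying GST-tagged Bcl family fusion proteins plus one bare bead set; values are compound well signal with DMSO vehicle wells as background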
Details: compound fluorescence 488/530 nm, at 10 µM, active compounds read high
With COc1ccc(NC2CCN(CCc3ccccc3)CC2)c(OC)c1 the fluorescence (KMESF) was inactive: 23. In the case of O=C(NCC1(N2CCOCC2)CCCCC1)c1cc2ccccc2o1, the fluorescence (KMESF) was inactive: 14. For CCOC(=O)N1CCC(Nc2ccc(OC)cc2)CC1, the fluorescence (KMESF) was inactive: 17. In the case of O=C(OC1CN2CCC1CC2)C1c2ccccc2Oc2ccccc21 (stereo not given), the fluorescence (KMESF) was inactive: 11. With COc1ccc(C(=O)NCC2(N3CCCCC3)CCCCC2)c(OC)c1OC the fluorescence (KMESF) was inactive: 9. In the case of CN(C)c1cccc(C(=O)NCC2(N3CCCCC3)CCCCC2)c1, the fluorescence (KMESF) was inactive: 10. With COc1ccc(CN(CCCl)CCCl)cc1Cl the fluorescence (KMESF) was inactive: 12. With CC(C)c1ccc(NC2CCN(C(=O)OC(C)(C)C)CC2)cc1 the fluorescence (KMESF) was inactive: 11. In the case of COc1ccc(NC2CCN(C(=O)OC(C)(C)C)CC2)cc1, the fluorescence (KMESF) was inactive: 15. In the case of CN1CCN(CCOC(=O)C(O)(c2ccccc2)c2ccccc2)CC1, the fluorescence (KMESF) was inactive: 8. For O=C(NCC1(N2CCOCC2)CCCCC1)c1cc(=O)[nH]c2ccccc12, the fluorescence (KMESF) was inactive: 22. In the case of O=C(NCC1(N2CCCCC2)CCCCC1)c1cccc([N+](=O)[O-])c1, the fluorescence (KMESF) was inactive: 10. In the case of N#CC1(Nc2ccccc2)CCN(CCc2ccccc2)CC1, the fluorescence (KMESF) was inactive: 22. In the case of c1ccc(CN2CCC(Nc3ccccc3)CC2)cc1, the fluorescence (KMESF) was inactive: 5. For N#Cc1ccc(C(=O)NCC2(N3CCCCC3)CCCCC2)cc1, the fluorescence (KMESF) was inactive: 16. In the case of N/C(=N\O)c1c(N)no[n+]1[O-], the fluorescence (KMESF) was inactive: 68. With O=C(OC1CN2CCC1CC2)C1c2ccccc2C=Cc2ccccc21 (stereo not given) the fluorescence (KMESF) was inactive: 7. In the case of COc1ccc(C(=O)NCC2(N3CCOCC3)CCCCC2)cc1OC, the fluorescence (KMESF) was inactive: 12. With CCC(CO)(C(=O)OC1CN2CCC1CC2)c1ccccc1 (stereo not given) the fluorescence (KMESF) was inactive: 24. For COc1cc(OC)cc(C(=O)NCC2(N3CCOCC3)CCCCC2)c1, the fluorescence (KMESF) was inactive: 12. For CCOc1ncccc1C(=O)NCC1(N2CCOCC2)CCCCC1, the fluorescence (KMESF) was inactive: 57. In the case of CC(C)(C)OC(=O)N1CCC(Nc2ccccc2)CC1, the fluorescence (KMESF) was inactive: 14. With CCN1CCC(Nc2cccc(F)c2)CC1 the fluorescence (KMESF) was inactive: 19. With CN(C)c1ccc(C(=O)NCC2(N3CCCCC3)CCCCC2)cc1 the fluorescence (KMESF) was inactive: 10. In the case of Fc1ccccc1NC1CCN(Cc2ccccc2)CC1, the fluorescence (KMESF) was inactive: 12.
